Drawing on ChEMBL document CHEMBL1133167, “Synthesis and opioid receptor affinity of morphinan and benzomorphan derivatives: mixed kappa agonists and mu agonists/antagonists as potential pharmacotherapeutics for cocaine dependence” (J Med Chem, 2000), this text covers Selectivity for one compound.

For the assay, the species on record is Cavia porcellus. The assay is described as follows: Selectivity kappa/delta.

For the compound `CN(C(=O)Cc1ccc(Cl)c(Cl)c1)C1CCCCC1N1CCCC1` (stereo unspecified), the Selectivity amounted to 6900.
